The data set deals with 4T1 cells. As to conditions: different concentrations, 24 hours, no irradiation.

Consider `Cc1ccc2c(=O)c3cccc(CC(=O)O)c3oc2c1C` [DMXAA, 5,6-dimethylxanthenone-4-acetic acid], for which the “biological toxicity to cells (WST-1 analysis)” value is “no remarkable biological toxicity”.

The values above are taken from patent US20250177532A1, “TEMPERATURE-SENSITIVE HYDROGEL FOR CANCER TREATMENT CAPABLE OF PHOTOTHERMAL THERAPY AND PREPARATION METHOD THEREFOR” (KOREA NATIONAL UNIVERSITY OF TRANSPORTATION …, priority 2022, published 2025).
